Values of other authors as cited in patent publication US5733881A, “Opioid peptide antagonists” (Astra AB, priority 1994, dated 1998).

Amino acid sequences for entries named in this document (tags omitted).
UniProt P35372, whole entry, species assumed: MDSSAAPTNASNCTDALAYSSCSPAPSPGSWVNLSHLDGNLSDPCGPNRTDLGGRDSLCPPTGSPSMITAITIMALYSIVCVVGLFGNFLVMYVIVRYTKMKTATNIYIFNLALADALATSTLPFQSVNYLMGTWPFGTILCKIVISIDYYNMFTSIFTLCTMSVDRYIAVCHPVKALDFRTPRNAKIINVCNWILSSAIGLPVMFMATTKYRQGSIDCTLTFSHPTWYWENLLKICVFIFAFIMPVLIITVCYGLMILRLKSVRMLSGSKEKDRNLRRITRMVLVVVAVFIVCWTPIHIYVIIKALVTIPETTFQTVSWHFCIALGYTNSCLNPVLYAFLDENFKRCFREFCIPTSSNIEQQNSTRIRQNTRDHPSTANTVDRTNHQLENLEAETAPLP

Biological target: μ opioid receptor (Homo sapiens, UniProt P35372)
Details: read-out: μ opioid receptor affinity Ki^μ; receptor binding assay

Structure (SMILES): Oc1ccc2c3c1O[C@H]1c4[nH]c5ccccc5c4C[C@@]4(O)[C@@H](C2)N(CC2CC2)CC[C@]314 [naltrindole]
- Ki: 0.012 µM
